# Measured affinities in a library of Ab-14 heavy chain variants

Target peptide (SARS-CoV-2 spike, HR2 region): PDVDLGDISGINAS

Parent: Ab-14, a human scFv built as VH, a 15-residue (Gly4Ser)3 linker, VL. Only the CDRs of the heavy chain vary.
VH: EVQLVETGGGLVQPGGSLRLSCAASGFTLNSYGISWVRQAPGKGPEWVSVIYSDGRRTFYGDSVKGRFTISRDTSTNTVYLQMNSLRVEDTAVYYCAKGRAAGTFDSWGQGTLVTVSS
VL: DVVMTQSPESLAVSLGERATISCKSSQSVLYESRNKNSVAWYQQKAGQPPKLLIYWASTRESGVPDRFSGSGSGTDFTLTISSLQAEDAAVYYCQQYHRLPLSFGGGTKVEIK

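The parent was found by panning a naive human phage display library on the peptide. This is the validation round: designs drawn from the data on random variants, tested in the same kind of assay. Group labels follow the data file (Ctrl: baseline library sampled from a position-specific scoring matrix, with some repeated check sequences; Rand: our label for a block that the file lists under HC and that is probably the random mutants of the ten best first-round binders; En: ensemble of fine-tuned language models; GP: Gaussian process model; GPLM: also part of the Gaussian process libraries; HC: hill climbing; Gen: genetic algorithm; Gibbs: Gibbs sampling; a sequence that several methods proposed may carry one label only). The assay is AlphaSeq: two haploid yeast populations carry antibody and antigen on their surface. Mating (16 h, 30 °C) was followed by selection of diploids and sequencing of their barcodes. The ratio of observed to expected reads was calibrated, replicate by replicate, on BCL2-family standards whose Kd was known from biolayer interferometry. Mating was done six times.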

Each variant is given by its three heavy chain CDRs, as the data file delimits them; those of the parent are GFTLNSYGIS, VIYSDGRRTFYGDSVK, GRAAGTFDS. This list holds designs with at most six substitutions. Affinities are written as log10 Kd with Kd in nM; a lower number is a better binder. Replicates are averaged; those with no signal do not enter the mean. A pair that was not seen in any replicate is written "not detected"; this usually means weak binding, but a binder can also be missed.

| CDR-H1 | CDR-H2 | CDR-H3 | group | log10 Kd (nM), mean | detected |
|---|---|---|---|---|---|
| GFQLNSYGIS | VIYSDGRRTFYVDQVK | GRQAGTFDS | GP_Gibbs | 0.38 | 6/6 |
| GFTLDSYGIS | VDYSDGRRTFYGDSVK | GRMAGTFDP | Ctrl | not detected | 0/6 |
| GFSLNSYGIS | VIYSDGKRTFYGDSVK | GQTAGTFDS | GPLM_Gen | 0.18 | 6/6 |
| GFTLNEYGIS | VIYSDGRRTFYSDSVK | GRLAGTFDT | GP_HC | 0.47 | 6/6 |
| GFSLNSYGIS | VIYSDGRRTFYGDSVK | GVTAGTFDS | GPLM_Gen | -0.07 | 6/6 |
| DFTLNSYGIS | VIYSDGRRTFYGDSVK | GTAAGLFSS | Ctrl | not detected | 0/6 |
| GFNLNSYGIS | VIYSDGRRTFYGDMVK | GKQAGTFDS | GP_Gibbs | 1.77 | 5/6 |
| GFTLNSYGIS | VIYSDGRRTFYTDSVK | GDEAGTFDS | GP_HC | 0.16 | 6/6 |
| GFDLNSFGIS | VIYSDGRRTFYLDSVK | GQAAGTFDS | GP_HC | not detected | 0/6 |
| GFDLNSYGIS | VIYSDGRRTFYGDQVK | GQTAGTFDS | GP_Gen | 0.09 | 6/6 |
| GQPLNSYGIS | VIYSDGIRTFYGDSVK | GRLAGTFDV | Ctrl | not detected | 0/6 |
| GFGLNSYGIS | VIYSDGRRTFYDDSVK | GQTAGTFDS | GP_HC | 0.09 | 6/6 |
| GFTLNEYGIS | VIYSDGRRTFYTDSVK | GREAGTFDV | GP_HC | -0.12 | 6/6 |
| GFFLNSYGIS | VIYSDGRRTFYGDSVK | GQEAGTFDT | GP_Gibbs | 0.95 | 1/6 |
| GFSLNSYGIS | VIYADGRRTFYGDSVK | GRAAGTFSS | Ctrl | 0.56 | 6/6 |
| GFTLNEYGIS | VIYSDGRRTFYTDSVK | GRHAGTFES | GP_HC | 1.82 | 5/6 |
| GTTLESYGIS | VIYSDGERTFYGDSVK | GRAACTFDS | Ctrl | not detected | 0/6 |
| GFDLNEYGIS | VIYADGMRTFYADSVK | GEAAGTFDS | En_HC | -0.38 | 6/6 |
| GFQLNSYGIS | VIYSDGRRTFYSDSVK | GRQAGTFDS | GPLM_Gibbs | 0.74 | 6/6 |
| GFSLNSYGIS | VIYSDGRRTFYIDSVK | GKTAGTFDS | GPLM_Gen | 1.02 | 3/6 |
| GFVLNEYGIS | VIYSDGRRTFYGDSVK | GEAAGTFDL | GP_Gibbs | 1.96 | 6/6 |
| GFTLNSYGIS | VIYSDGRRTFYGDSVK | GIATGTFDS | Ctrl | not detected | 0/6 |
| GFSLNSYGIS | VIYSDGRRTFYADKVK | GKAAGTFDS | GPLM_Gen | 0.75 | 6/6 |
| GFTLQSYGIS | VIYSDGRRTFYGDSVK | GEAAGTFDS | Ctrl | 1.78 | 4/6 |
| GFTLNSYGIS | VIYADGRRVFYGDSVK | RRAAGTFDS | Ctrl | not detected | 0/6 |
| GFTLKSYGIS | VIYADGRRTFYGDSVK | GRAAGTYDS | GP_HC | 2.30 | 4/6 |
| GFKLNSYGIS | VIYSDGRRTFYGDNVK | GRTAGTFDS | GP_Gen | 1.38 | 5/6 |
| GFDLNSYGIS | VIYSDGRRTYYAYSVK | GRAAGTFDS | Ctrl | 2.11 | 4/6 |
| GFELNSYGIS | VIYADGRRTFYGDSVK | GRAAGTFDF | GP_Gibbs | -0.19 | 6/6 |
| GFDLNSYGIS | VIYSDGRRTFYADSVK | GQAAGTFDL | GPLM_Gen | 0.14 | 6/6 |
| GFELNSYGIS | VIYSDGRRTFYGDSVK | GRSAGTFDT | GP_Gibbs | 0.60 | 1/6 |
| LFTLNSYGIS | VIYSDGRRTFYGDSVK | GRAAGTKDD | Ctrl | not detected | 0/6 |
| GFTLNSYGIS | VIYSDGRRTFYGDSVK | GTATGTFDS | Ctrl | not detected | 0/6 |
| GFTLNNYGIS | VIYSDGKRTFYGDSVK | GRAAGTFDS | Ctrl | 1.33 | 6/6 |
| GFTLNEYGIS | VIYSDGRRTFYGDAVK | GRCAGTFDS | GP_HC | 2.04 | 3/6 |
| GFSLNSYGIS | VIYADGRRTFYGDSVK | GRAAGTFDL | GPLM_Gen | 0.18 | 6/6 |
| GFTLNSYGIS | VIYSDGRRTFYDDSVK | GEEAGTFDS | Ctrl | 0.10 | 5/6 |
| GFQLESYGIS | VIYSDGRRTFYGDSVK | GRTAGTFDS | GP_Gen | 1.51 | 5/6 |
| GFFLNSYGIS | VIYSDGRRTFYDDSVK | GQLAGTFDS | GPLM_HC | 2.07 | 6/6 |
| GFTLNSYGIS | VIYSDGRRTFYGDSVK | GRAAGTIES | Ctrl | not detected | 0/6 |
| GFSLNSYGIS | VIYSDGRRTAYMDSVK | GRAAGTFDS | GPLM_Gen | 0.15 | 6/6 |
| GFPLNEYGIS | VIYADGRRTFYGDSVK | GDAAGTFDS | GP_HC | -0.38 | 6/6 |
| GFTLNSYGIS | VIYSDGRRTFYDDSVK | GTNAGTFDS | GP_HC | 0.74 | 6/6 |
| GFHLNEYGIS | VIYSDGRRTFYGDSVK | GREAGTFDS | Ctrl | -0.02 | 6/6 |
| GFTLNDYGIS | VIYSDGRRTFYGDSVK | GRNAGTFDS | Ctrl+GPLM_Gen | 1.04 | 12/12 |
| GFGLNSYGIS | VIYSDGRRTFYGDSVK | GLAAGTTDS | Ctrl | not detected | 0/6 |
| GFDLNEYGIS | VIYADGRRTFYADSVK | GTAAGTFDV | En_HC | -0.23 | 6/6 |
| GFGLNEYGIS | VIYSDGRRTFYHDSVK | GKAAGTFDT | GP_Gibbs | 0.83 | 6/6 |
| GFTLNSYGIS | VIYSDGRRTFYHDSVK | GRAAGTFDH | Ctrl | 1.77 | 3/6 |
| GFTLDRYGIS | VIYADGRRTFYGDSVK | GRLAGTFDS | GP_HC | -0.17 | 6/6 |
| GFTLNSIGIS | VIYSDGRRTFYGDSVK | GPAAGTFDS | Ctrl | not detected | 0/6 |
| GFELNDYGIS | VIYSDGRRTFYGDSVK | GKAAGTFWS | GP_HC | not detected | 0/6 |
| GFHLNSYGVS | VIYSDGRRTFYGDSVK | GTAAGTFDS | Ctrl | 1.03 | 2/6 |
| GFDLNSYGIS | VIYSDGKRTFYGDSVK | GKTAGTFDS | GPLM_Gibbs | -0.04 | 6/6 |
| GFSLNEYGIS | VIYSDGRRTFYGDSVK | GREAGTFDK | GPLM_Gen | -0.42 | 6/6 |
| GFTLNSYGIS | VIYSDGRRTFYGDSVK | GRAAGLFDS | Ctrl | not detected | 0/6 |
| GFTLNQYGII | VIYSVGRRTFYSDSCK | GRAAGFFDS | Rand | not detected | 0/6 |

Top 5 of the variants detected in all replicates, tightest first:

CDR-H1,CDR-H2,CDR-H3,group,"log10 Kd (nM), mean",detected
GFSLNEYGIS,VIYSDGRRTFYGDSVK,GREAGTFDK,GPLM_Gen,-0.42,6/6
GFDLNEYGIS,VIYADGMRTFYADSVK,GEAAGTFDS,En_HC,-0.38,6/6
GFPLNEYGIS,VIYADGRRTFYGDSVK,GDAAGTFDS,GP_HC,-0.38,6/6
GFDLNEYGIS,VIYADGRRTFYADSVK,GTAAGTFDV,En_HC,-0.23,6/6
GFELNSYGIS,VIYADGRRTFYGDSVK,GRAAGTFDF,GP_Gibbs,-0.19,6/6

In the paper, a design with two or fewer of six values counts as a poor binder. Empty control strains, which show no peptide, gave a signal in 1% of pairings with all heavy chain designs; the median was 2.08 and 95% of these signals were weaker than 0.84. No background was subtracted. Of ten entries with the parent sequence, four were seen in most replicates (averages 0.34 to 2.37), three in one and three in none, so single entries are noisy. Some sequences occur more than once in the pool; their replicates are pooled. Values of this round are not directly comparable with the first-round values of the same sequences.

From the AlphaSeq antibody data of Li et al. 2023 (doi:10.1038/s41467-023-39022-2), copy in the FLAb collection.